Two molecules from ChEMBL document CHEMBL4425138, “Probing Lipophilic Adamantyl Group as the P1-Ligand for HIV-1 Protease Inhibitors: Design, Synthesis, Protein X-ray Structural Studies, and Biological Evaluation” (J Med Chem, 2016) can be followed below.

The subject of the experiment is Human immunodeficiency virus 1. In words: Ratio of IC50 for HIV1 LA1 to Ki for HIV1 protease.

Consider `COc1ccc(S(=O)(=O)N(Cc2ccccc2)C[C@@H](O)[C@H](CC23CC4CC(CC(C4)C2)C3)NC(=O)O[C@H]2CO[C@H]3OCC[C@H]32)cc1`, for which the Ratio is 36.

`COc1ccc(S(=O)(=O)N(CC(C)C)C[C@@H](O)[C@H](CC23CC4CC(CC(C4)C2)C3)NC(=O)O[C@H]2CO[C@H]3OCC[C@H]32)cc1`: the Ratio worked out at 67.
